Data from PMC9862819, “Structural Characterization of Murine Phosphodiesterase 5 Isoforms and Involvement of Cysteine Residues in Supramolecular Assembly” (International Journal of Molecular Sciences, 2023).
Several values for one entry are separate records, joined by “and”; a condition that tells them apart may be missing. Identical values can stand only once. Blank lines part the entries; values can stand above or below the substance they belong to.

Columns and labels:
[1] = target: Mus musculus phosphodiesterase 5 isoform A1 (MmPDE5A1) (Mus musculus); test: negative-stain transmission electron microscopy; purified samples diluted to 0.6 mg/mL, uranyl acetate 2%, no ligands or effectors, 120 kV
[2] = target: Mus musculus phosphodiesterase 5 isoform A1 (MmPDE5A1) (Mus musculus); test: native gel or EMSA; native PAGE, 5% nondenaturing acrylamide gel, Tris-glycine pH 8.3, 4 °C, 1.0 ug purified protein a lane, freshly purified or preincubated at 30 °C (cGMP, sildenafil, EDTA, DTT, diamide, NEM) in 50 mM HEPES pH 7.5, 50 mM NaCl, 15 mM MgCl2; Coomassie staining
[3] = target: Mus musculus phosphodiesterase 5 isoform A1 (MmPDE5A1) (Mus musculus); test: SEC-SAXS; SE-HPLC-SAXS, SWING beamline; Superdex S200 5/150, 50 mM HEPES pH 7.5, 75 mM NaCl, 37.5 mM MgCl2, 293 K, 0.2 mL/min; 40 uL injected at 3 and 1 mg/mL; fractions of dimer and tetramer by gaussian deconvolution (US-SOMO)
[4] = target: Mus musculus phosphodiesterase 5 isoform A2 (MmPDE5A2) (Mus musculus); test: negative-stain transmission electron microscopy; purified samples diluted to 0.6 mg/mL, uranyl acetate 2%, no ligands or effectors, 120 kV
[5] = target: Mus musculus phosphodiesterase 5 isoform A2 (MmPDE5A2) (Mus musculus); test: native gel or EMSA; native PAGE, 5% nondenaturing acrylamide gel, Tris-glycine pH 8.3, 4 °C, 1.0 ug purified protein a lane, freshly purified or preincubated at 30 °C (cGMP, sildenafil, EDTA, DTT, diamide, NEM) in 50 mM HEPES pH 7.5, 50 mM NaCl, 15 mM MgCl2; Coomassie staining
[6] = target: Mus musculus phosphodiesterase 5 isoform A2 (MmPDE5A2) (Mus musculus); test: SEC-SAXS; SE-HPLC-SAXS, SWING beamline; Superdex S200 5/150, 50 mM HEPES pH 7.5, 75 mM NaCl, 37.5 mM MgCl2, 293 K, 0.2 mL/min; 40 uL injected at 3 and 1 mg/mL; fractions of dimer and tetramer by gaussian deconvolution (US-SOMO)
[7] = target: Mus musculus phosphodiesterase 5 isoform A2 (MmPDE5A2) (Mus musculus); test: native gel or EMSA; native PAGE after incubation with DTNB (increasing concentrations, different times; for A3 also 30 °C 1 h with or without EDTA, cGMP, sildenafil, NEM); 1 ug purified protein a lane; cysteines modified by DTNB
[8] = target: Mus musculus phosphodiesterase 5 isoform A3 (MmPDE5A3) (Mus musculus); test: non-reducing SDS-PAGE of unboiled samples; MmPDE5A3 after incubation with DTNB with or without NEM, not boiled, no reducing agent in the loading buffer
[9] = target: Mus musculus phosphodiesterase 5 isoform A3 (MmPDE5A3) (Mus musculus); test: negative-stain transmission electron microscopy; purified samples diluted to 0.6 mg/mL, uranyl acetate 2%, no ligands or effectors, 120 kV
[10] = target: Mus musculus phosphodiesterase 5 isoform A3 (MmPDE5A3) (Mus musculus); test: native gel or EMSA; native PAGE, 5% nondenaturing acrylamide gel, Tris-glycine pH 8.3, 4 °C, 1.0 ug purified protein a lane, freshly purified or preincubated at 30 °C (cGMP, sildenafil, EDTA, DTT, diamide, NEM) in 50 mM HEPES pH 7.5, 50 mM NaCl, 15 mM MgCl2; Coomassie staining
[11] = target: Mus musculus phosphodiesterase 5 isoform A3 (MmPDE5A3) (Mus musculus); test: SEC-SAXS; SE-HPLC-SAXS, SWING beamline; Superdex S200 5/150, 50 mM HEPES pH 7.5, 75 mM NaCl, 37.5 mM MgCl2, 293 K, 0.2 mL/min; 40 uL injected at 3 and 1 mg/mL; fractions of dimer and tetramer by gaussian deconvolution (US-SOMO)
[12] = target: Mus musculus phosphodiesterase 5 isoform A3 (MmPDE5A3) (Mus musculus); test: native gel or EMSA; native PAGE after incubation with DTNB (increasing concentrations, different times; for A3 also 30 °C 1 h with or without EDTA, cGMP, sildenafil, NEM); 1 ug purified protein a lane; cysteines modified by DTNB
[13] = target: Mus musculus phosphodiesterase 5 isoform A3 (MmPDE5A3) (Mus musculus); test: non-reducing SDS-PAGE of unboiled samples; MmPDE5A3 alone or with sildenafil or DTT, not boiled, no reducing agent in the loading buffer

stoichiometry N [1]: 4 and 2 | stoichiometry N [2]: 2 and 4 | % Dimer [3]: 60% | % Tetramer [3]: 40% | stoichiometry N [3]: 4 and 2
Substance: Mus musculus phosphodiesterase 5 isoform A1 (MmPDE5A1) (enzyme)

stoichiometry N [4]: 2 | stoichiometry N [5]: 2 | % Dimer [6]: 97% | % Tetramer [6]: 3% | stoichiometry N [6]: 2 | stoichiometry N [7]: 4
Substance: Mus musculus phosphodiesterase 5 isoform A2 (MmPDE5A2) (from UniProt A0A0G2JF67 1-833) (enzyme)

stoichiometry N [8]: 4 and 6 and 8 | stoichiometry N [9]: 2 | stoichiometry N [10]: 2 | % Dimer [11]: 100% | % Tetramer [11]: 0% | stoichiometry N [11]: 2 | stoichiometry N [12]: > 4 | stoichiometry N [13]: 2
Substance: Mus musculus phosphodiesterase 5 isoform A3 (MmPDE5A3) (enzyme)
